Assay results published in ChEMBL document CHEMBL1131013, “Synthesis and evaluation of analogues of the partial agonist 6-(propyloxy)-4-(methoxymethyl)-beta-carboline-3-carboxylic acid ethyl ester (6-PBC) and the full agonist 6-(benzyloxy)-4-(methoxymethyl)-beta-carboline-3-carboxylic acid ethyl ester (Zk 93423) at wild type and recombinant GABAA receptors” (J Med Chem, 1998).

Chains of the proteins cited; added tags and fusions are not shown.
UniProt Q16445, whole entry: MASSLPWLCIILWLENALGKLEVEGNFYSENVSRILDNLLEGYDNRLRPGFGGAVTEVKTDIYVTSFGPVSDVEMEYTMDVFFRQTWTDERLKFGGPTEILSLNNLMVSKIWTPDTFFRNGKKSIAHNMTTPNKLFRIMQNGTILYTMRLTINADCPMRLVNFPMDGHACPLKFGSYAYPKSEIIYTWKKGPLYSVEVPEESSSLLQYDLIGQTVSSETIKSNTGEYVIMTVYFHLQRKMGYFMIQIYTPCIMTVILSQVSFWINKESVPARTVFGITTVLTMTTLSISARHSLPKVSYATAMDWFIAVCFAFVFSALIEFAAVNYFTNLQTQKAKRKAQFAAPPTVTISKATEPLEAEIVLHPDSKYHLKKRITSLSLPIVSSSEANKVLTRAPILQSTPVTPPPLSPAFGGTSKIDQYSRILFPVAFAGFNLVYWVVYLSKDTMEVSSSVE

What was measured:
[1] = biological target: GABA-A receptor; alpha-6/beta-3/gamma-2 (Homo sapiens, UniProt P18507+P28472+Q16445); test: Binding affinity measured using LtK- cell membranes expressing Gamma-aminobutyric acid A receptor alpha-6-beta-3-gamma-2
Summary of the method: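 Ltk- cells expressing human α6β3γ2, scraped into PBS and resuspended in 10 mM KH2PO4/100 mM KCl pH 7.4. 1 h at 4 °C to equilibrium, filtration, scintillation counting.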

[2] = biological target: T1, GABA-A receptor; alpha-5/beta-3/gamma-2 (Homo sapiens, UniProt P18507+P28472+P31644); test: Binding affinity measured using LtK- cell membranes expressing Gamma-aminobutyric acid A receptor alpha-5-beta-3-gamma-2
T1 sequence (P18507 whole entry): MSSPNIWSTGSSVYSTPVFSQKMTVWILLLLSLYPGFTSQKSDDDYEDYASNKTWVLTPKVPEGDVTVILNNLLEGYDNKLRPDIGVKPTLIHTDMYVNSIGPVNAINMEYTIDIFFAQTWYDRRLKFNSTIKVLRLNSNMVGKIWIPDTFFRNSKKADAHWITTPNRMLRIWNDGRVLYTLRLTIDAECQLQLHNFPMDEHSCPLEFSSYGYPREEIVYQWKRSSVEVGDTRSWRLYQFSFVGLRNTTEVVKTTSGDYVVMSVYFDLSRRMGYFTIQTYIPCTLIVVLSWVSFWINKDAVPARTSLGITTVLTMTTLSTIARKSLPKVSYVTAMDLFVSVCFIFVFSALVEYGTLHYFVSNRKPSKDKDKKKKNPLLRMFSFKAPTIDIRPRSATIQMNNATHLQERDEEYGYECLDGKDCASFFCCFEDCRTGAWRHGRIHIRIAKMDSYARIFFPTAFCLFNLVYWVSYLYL
T1 sequence (P28472 whole entry): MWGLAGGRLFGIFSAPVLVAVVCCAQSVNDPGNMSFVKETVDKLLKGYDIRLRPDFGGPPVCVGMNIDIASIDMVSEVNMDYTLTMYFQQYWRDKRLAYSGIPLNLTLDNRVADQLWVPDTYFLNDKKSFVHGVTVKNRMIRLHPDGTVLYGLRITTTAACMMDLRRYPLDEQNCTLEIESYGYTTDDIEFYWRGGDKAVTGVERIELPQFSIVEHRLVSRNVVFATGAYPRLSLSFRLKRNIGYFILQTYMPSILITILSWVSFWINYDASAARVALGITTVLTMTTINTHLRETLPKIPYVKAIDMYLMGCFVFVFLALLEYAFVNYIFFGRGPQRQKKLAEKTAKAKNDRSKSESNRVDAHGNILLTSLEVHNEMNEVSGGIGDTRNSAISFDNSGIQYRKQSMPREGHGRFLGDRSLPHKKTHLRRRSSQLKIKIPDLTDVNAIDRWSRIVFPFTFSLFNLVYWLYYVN
T1 sequence (P31644 whole entry): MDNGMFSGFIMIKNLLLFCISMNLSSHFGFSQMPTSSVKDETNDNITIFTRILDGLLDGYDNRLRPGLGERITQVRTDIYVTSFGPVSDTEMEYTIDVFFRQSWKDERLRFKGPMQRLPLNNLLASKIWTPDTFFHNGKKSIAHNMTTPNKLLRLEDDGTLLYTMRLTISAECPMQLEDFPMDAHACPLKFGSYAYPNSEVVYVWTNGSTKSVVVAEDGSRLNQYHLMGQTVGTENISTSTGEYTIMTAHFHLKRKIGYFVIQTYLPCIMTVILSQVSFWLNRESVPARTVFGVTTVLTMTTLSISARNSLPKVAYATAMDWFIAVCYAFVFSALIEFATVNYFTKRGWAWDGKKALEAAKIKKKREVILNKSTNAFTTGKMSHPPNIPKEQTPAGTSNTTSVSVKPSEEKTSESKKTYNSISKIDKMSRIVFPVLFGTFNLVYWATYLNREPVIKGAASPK

[3] = biological target: T2, GABA-A receptor; alpha-3/beta-3/gamma-2 (Homo sapiens, UniProt P18507+P28472+P34903); test: Binding affinity measured using LtK- cell membranes expressing GABA alpha-3-beta-3-gamma-2 receptor
T2 sequence (P18507 whole entry): T1 sequence (P18507 whole entry)
T2 sequence (P28472 whole entry): T1 sequence (P28472 whole entry)
T2 sequence (P34903 whole entry): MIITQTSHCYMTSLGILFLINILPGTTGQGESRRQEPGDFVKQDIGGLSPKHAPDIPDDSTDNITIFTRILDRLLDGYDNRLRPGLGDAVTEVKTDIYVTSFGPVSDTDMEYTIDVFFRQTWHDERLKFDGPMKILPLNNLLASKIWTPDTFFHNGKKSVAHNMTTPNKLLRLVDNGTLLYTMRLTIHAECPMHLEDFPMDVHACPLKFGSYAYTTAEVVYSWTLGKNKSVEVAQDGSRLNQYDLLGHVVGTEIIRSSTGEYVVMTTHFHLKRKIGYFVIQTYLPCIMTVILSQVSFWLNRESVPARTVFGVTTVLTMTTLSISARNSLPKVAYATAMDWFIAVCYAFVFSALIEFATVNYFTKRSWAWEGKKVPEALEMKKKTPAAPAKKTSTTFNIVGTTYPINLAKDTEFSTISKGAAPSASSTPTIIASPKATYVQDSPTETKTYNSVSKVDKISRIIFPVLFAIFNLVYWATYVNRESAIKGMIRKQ

[4] = biological target: T3, GABA-A receptor; alpha-2/beta-3/gamma-2 (Homo sapiens, UniProt P18507+P28472+P47869); test: Binding affinity measured using LtK- cell membranes expressing GABA alpha-2-beta-3-gamma-2 receptor
T3 sequence (P18507 whole entry): T1 sequence (P18507 whole entry)
T3 sequence (P28472 whole entry): T1 sequence (P28472 whole entry)
T3 sequence (P47869 whole entry): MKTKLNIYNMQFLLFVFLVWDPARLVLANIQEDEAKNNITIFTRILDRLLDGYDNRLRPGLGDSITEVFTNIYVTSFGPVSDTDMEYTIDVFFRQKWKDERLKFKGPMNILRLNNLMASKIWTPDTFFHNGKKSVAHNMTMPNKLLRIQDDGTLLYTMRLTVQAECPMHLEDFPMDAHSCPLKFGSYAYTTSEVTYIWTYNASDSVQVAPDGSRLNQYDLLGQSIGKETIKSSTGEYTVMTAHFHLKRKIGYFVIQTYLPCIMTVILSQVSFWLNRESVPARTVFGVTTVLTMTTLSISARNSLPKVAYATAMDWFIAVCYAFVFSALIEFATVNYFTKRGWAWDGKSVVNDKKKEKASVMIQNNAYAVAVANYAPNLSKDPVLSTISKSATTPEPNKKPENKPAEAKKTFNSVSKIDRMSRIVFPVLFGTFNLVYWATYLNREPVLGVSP

## CCOC(=O)c1cc2c(cn1)[nH]c1ccccc12
[1]
  Ki: > 1000 nM
[2]
  Ki: 26.8 nM
[3]
  Ki: 5.7 nM
[4]
  Ki: 4.9 nM
